{"source": "patent US20200276139A1", "about": "(Evoke Pharma, Inc., priority 2017, published 2020)", "origin": "cited, not measured here", "conditions": "Reglan package insert; cited from earlier work"}
{"smiles": "CCN(CC)CCNC(=O)c1cc(Cl)c(N)cc1OC", "note": "[metoclopramide, 4-amino-5-chloro-N-(2-(diethylamino)ethyl)-2-methoxybenzamide]", "values": [{"measurement": "absorption and elimination kinetics", "value": "linear kinetic processes"}]}
